# scFv variants of Ab-95 (light chain) against a SARS-CoV-2 spike peptide

The measurements come from Engelhart et al. 2022 (doi:10.1038/s41597-022-01779-4) through the FLAb antibody collection.

Antigen: PDVDLGDISGINAS, a 14-residue peptide of the SARS-CoV-2 spike HR2 region.

Parent scFv Ab-95: VH joined to VL by a 15-residue (Gly4Ser)3 linker. Changes lie in the light chain CDRs alone.
VH: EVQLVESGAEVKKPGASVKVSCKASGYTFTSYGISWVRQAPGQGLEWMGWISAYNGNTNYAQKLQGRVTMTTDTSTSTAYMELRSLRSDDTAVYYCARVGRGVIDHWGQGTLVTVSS
VL: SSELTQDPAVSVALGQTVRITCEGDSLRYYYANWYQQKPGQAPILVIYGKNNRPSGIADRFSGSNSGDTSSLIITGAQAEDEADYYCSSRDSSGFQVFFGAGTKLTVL

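The starting antibody came from a phage panning campaign against this peptide. In library AAYL52, one, two or three CDR residues were substituted; doubles and triples were drawn at random. AlphaSeq pools MATa yeast showing the antibodies with MATalpha yeast showing the peptide. Binding brings cells together so that they mate, and sequencing counts the barcode pairs among the diploids. Each replicate has its own calibration line, from reference interactions of the BCL2 family. Mating was done three times.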

Positions count from residue 1 of the parent VL; D25L puts L in place of D.
Scale: log10 of Kd in nM, estimated from mating counts; low values are strong binders.
A mean of the replicates is given; it leaves out those without a signal.
"not detected" means that the variant was in the library but no mating with the target was seen in any replicate; the authors take this as a sign of poor binding, and no number exists.
Order: sorted from the lowest average up, undetected variants last.
As a blank, each scFv also met three strains without target: over library AAYL52, 28% of these pairings were detected, typically at 3.91 and seldom below 2.90.

| changes | log10 Kd (nM), mean | detected |
|---|---|---|
| D25L/Y30N/F95N | 1.03 | 3 of 3 |
| Y31G/A32T/V97Y | 1.31 | 3 of 3 |
| Y30K/N52T/V97L | 1.38 | 3 of 3 |
| K50H/S55E/S89H | 1.81 | 3 of 3 |
| D25K/Y29P/N52E | 1.83 | 3 of 3 |
| S92V/V97E/F98M | 1.86 | 3 of 3 |
| S26M/Y31G | 2.00 | 3 of 3 |
| S89Y/R90D/D91K | 2.20 | 3 of 3 |
| E23S/S55Q/G94E | 2.24 | 3 of 3 |
| N33V/G94H/Q96L | 2.26 | 3 of 3 |
| Y31C/S92H/Q96L | 2.30 | 3 of 3 |
| N51D/S55Y | 2.34 | 3 of 3 |
| N52A/S55T/S88C | 2.69 | 3 of 3 |
| N52K/S55D/F95C | 2.73 | 3 of 3 |
| N51Q/P54Q/S93T | 2.78 | 2 of 3 |
| S89T/S93M | 2.88 | 2 of 3 |
| N52V/G94A/Q96Y | 2.94 | 3 of 3 |
| R53T/D91F/Q96N | 2.94 | 2 of 3 |
| R28A/R90N/D91H | 2.95 | 3 of 3 |
| Y29L/K50D/F98N | 3.04 | 3 of 3 |
| S26D/P54L/V97I | 3.04 | 3 of 3 |
| R53H/D91R/V97T | 3.13 | 3 of 3 |
| S89T/Q96D | 3.18 | 3 of 3 |
| S26C/Y30E/N51L | 3.19 | 2 of 3 |
| P54G/D91H/G94M | 3.33 | 3 of 3 |
| A32R/S55M/Q96R | 3.33 | 1 of 3 |
| R53Q/Q96P/V97W | 3.34 | 3 of 3 |
| E23P/G24L/N52I | 3.37 | 2 of 3 |
| D25L/N33K/K50R | 3.39 | 3 of 3 |
| D25W/R90P/S92T | 3.40 | 3 of 3 |
| P54S/S89Y/G94Q | 3.41 | 2 of 3 |
| R28I/Y29L/S92T | 3.44 | 3 of 3 |
| E23T/L27Q/S88W | 3.46 | 3 of 3 |
| N52Q/R90G/S93D | 3.47 | 2 of 3 |
| N51E/S92D | 3.50 | 3 of 3 |
| R53W/S92M/G94N | 3.58 | 1 of 3 |
| G94E/V97N/F98Y | 3.64 | 3 of 3 |
| G49Q/N52D/S55C | 3.65 | 3 of 3 |

The remaining entries, values ahead:

| log10 Kd (nM), mean | detected | changes |
|---|---|---|
| 3.73 | 1 of 3 | S89H/Q96Y/V97I |
| 3.75 | 1 of 3 | R28T/N51H/S93H |
| 3.75 | 3 of 3 | L27M/S88N/S93R |
| 3.78 | 3 of 3 | A32V/S92E/Q96P |
| 3.78 | 2 of 3 | S26E/Q96L |
| 3.79 | 2 of 3 | R28T/G49R/S55N |
| 3.81 | 3 of 3 | G24D/N52G/V97I |
| 3.81 | 2 of 3 | A32I/S92K |
| 3.83 | 2 of 3 | R53Y/V97C/F98G |
| 3.96 | 2 of 3 | A32V/S88R |
| 3.96 | 2 of 3 | N33P/G49M/R90Y |
| 3.97 | 2 of 3 | G24P/D25E/S93G |
| 4.00 | 1 of 3 | G49T/S92I/V97C |
| 4.04 | 2 of 3 | E23Y/D25M/V97Y |
| 4.08 | 1 of 3 | G24V/G94C/F98N |
| 4.10 | 2 of 3 | N51V/G94V |
| 4.26 | 2 of 3 | S26I/Y29Q/S92I |
| 4.28 | 3 of 3 | D25S/S26C/S93P |
| 4.29 | 2 of 3 | G24F/K50I/V97I |
| 4.29 | 2 of 3 | E23Y/N33G/F98W |
| 4.33 | 2 of 3 | G49M/K50R/V97G |
| 4.40 | 1 of 3 | Y31G/P54C/R90C |
| 4.47 | 1 of 3 | R53F/S93I/Q96V |
| 4.53 | 2 of 3 | D25H/S26R/N52P |
| 4.66 | 1 of 3 | Y30M/A32D/F98Y |
| 4.69 | 2 of 3 | E23Q/N52C/P54L |
| 4.81 | 3 of 3 | S26D/N52C/V97S |
| 4.93 | 1 of 3 | D91K/S92I/F95R |
| not detected | 0 of 3 | L27C/A32D/S93M |
| not detected | 0 of 3 | P54A/G94R/Q96D |
| not detected | 0 of 3 | L27Y/R28K/F95S |
| not detected | 0 of 3 | S26W/D91W/G94E |
| not detected | 0 of 3 | G49I/S92E/S93L |
| not detected | 0 of 3 | L27W/K50C/S55C |
| not detected | 0 of 3 | S26W/G94A/V97S |
| not detected | 0 of 3 | P54C/S88G/S92L |
| not detected | 0 of 3 | P54R/S89N/F95S |
| not detected | 0 of 3 | R53Q/D91C/G94Y |
| not detected | 0 of 3 | E23Q/S92C/S93C |

The closing 12 entries, repeated:

| changes | log10 Kd (nM), mean | detected |
|---|---|---|
| D91K/S92I/F95R | 4.93 | 1 of 3 |
| L27C/A32D/S93M | not detected | 0 of 3 |
| P54A/G94R/Q96D | not detected | 0 of 3 |
| L27Y/R28K/F95S | not detected | 0 of 3 |
| S26W/D91W/G94E | not detected | 0 of 3 |
| G49I/S92E/S93L | not detected | 0 of 3 |
| L27W/K50C/S55C | not detected | 0 of 3 |
| S26W/G94A/V97S | not detected | 0 of 3 |
| P54C/S88G/S92L | not detected | 0 of 3 |
| P54R/S89N/F95S | not detected | 0 of 3 |
| R53Q/D91C/G94Y | not detected | 0 of 3 |
| E23Q/S92C/S93C | not detected | 0 of 3 |